Results on 45 compounds are retold here after patent EP4831180A1, “NOVEL KINASE INHIBITOR” (dated 2026).

By UniProt entry, the sequences of proteins in these tests, tags left out. Residues count along the entry.
UniProt Q9UM73, 19-1620 L1196M/G1202R limits assumed: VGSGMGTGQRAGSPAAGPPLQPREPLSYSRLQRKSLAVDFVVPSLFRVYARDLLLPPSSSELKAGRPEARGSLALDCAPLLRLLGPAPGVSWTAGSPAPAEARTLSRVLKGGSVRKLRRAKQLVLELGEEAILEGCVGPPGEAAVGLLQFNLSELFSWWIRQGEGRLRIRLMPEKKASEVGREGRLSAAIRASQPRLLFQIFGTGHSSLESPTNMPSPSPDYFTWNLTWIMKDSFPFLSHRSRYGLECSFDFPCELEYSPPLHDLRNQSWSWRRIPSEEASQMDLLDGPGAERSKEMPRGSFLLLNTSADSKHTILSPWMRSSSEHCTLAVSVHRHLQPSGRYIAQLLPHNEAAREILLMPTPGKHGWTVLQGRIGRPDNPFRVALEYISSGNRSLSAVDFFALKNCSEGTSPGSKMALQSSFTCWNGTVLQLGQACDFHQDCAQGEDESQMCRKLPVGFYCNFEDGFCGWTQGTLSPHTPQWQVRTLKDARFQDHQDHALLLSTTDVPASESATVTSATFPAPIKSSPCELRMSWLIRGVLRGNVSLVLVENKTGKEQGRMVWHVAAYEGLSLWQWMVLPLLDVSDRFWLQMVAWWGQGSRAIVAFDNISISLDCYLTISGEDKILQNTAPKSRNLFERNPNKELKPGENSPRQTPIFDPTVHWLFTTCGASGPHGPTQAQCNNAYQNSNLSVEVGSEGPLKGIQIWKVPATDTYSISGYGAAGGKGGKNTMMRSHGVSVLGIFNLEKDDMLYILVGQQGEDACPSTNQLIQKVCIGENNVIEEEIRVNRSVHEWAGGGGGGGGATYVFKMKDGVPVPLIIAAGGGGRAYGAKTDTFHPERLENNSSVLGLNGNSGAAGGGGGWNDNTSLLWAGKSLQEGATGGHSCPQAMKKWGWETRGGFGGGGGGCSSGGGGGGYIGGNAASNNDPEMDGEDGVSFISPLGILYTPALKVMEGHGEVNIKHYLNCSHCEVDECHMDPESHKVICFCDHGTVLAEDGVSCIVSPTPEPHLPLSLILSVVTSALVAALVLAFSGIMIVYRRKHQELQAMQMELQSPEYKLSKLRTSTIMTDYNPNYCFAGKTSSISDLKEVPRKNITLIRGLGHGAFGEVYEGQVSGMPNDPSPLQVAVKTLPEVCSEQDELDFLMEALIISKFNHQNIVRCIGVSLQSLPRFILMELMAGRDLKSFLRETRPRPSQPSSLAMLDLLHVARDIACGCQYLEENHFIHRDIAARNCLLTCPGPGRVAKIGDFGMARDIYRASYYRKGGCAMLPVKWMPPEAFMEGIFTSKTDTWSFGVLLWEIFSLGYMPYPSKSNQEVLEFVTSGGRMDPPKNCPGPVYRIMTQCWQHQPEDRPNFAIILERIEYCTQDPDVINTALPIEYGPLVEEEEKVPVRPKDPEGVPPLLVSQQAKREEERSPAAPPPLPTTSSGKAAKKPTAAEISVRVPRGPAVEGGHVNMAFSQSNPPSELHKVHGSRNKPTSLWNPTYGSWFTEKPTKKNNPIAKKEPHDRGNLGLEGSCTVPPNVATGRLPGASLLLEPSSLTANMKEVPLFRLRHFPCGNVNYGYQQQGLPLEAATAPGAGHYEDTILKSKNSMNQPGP
UniProt Q9UM73, 19-1620 I1171N/D1203N limits assumed: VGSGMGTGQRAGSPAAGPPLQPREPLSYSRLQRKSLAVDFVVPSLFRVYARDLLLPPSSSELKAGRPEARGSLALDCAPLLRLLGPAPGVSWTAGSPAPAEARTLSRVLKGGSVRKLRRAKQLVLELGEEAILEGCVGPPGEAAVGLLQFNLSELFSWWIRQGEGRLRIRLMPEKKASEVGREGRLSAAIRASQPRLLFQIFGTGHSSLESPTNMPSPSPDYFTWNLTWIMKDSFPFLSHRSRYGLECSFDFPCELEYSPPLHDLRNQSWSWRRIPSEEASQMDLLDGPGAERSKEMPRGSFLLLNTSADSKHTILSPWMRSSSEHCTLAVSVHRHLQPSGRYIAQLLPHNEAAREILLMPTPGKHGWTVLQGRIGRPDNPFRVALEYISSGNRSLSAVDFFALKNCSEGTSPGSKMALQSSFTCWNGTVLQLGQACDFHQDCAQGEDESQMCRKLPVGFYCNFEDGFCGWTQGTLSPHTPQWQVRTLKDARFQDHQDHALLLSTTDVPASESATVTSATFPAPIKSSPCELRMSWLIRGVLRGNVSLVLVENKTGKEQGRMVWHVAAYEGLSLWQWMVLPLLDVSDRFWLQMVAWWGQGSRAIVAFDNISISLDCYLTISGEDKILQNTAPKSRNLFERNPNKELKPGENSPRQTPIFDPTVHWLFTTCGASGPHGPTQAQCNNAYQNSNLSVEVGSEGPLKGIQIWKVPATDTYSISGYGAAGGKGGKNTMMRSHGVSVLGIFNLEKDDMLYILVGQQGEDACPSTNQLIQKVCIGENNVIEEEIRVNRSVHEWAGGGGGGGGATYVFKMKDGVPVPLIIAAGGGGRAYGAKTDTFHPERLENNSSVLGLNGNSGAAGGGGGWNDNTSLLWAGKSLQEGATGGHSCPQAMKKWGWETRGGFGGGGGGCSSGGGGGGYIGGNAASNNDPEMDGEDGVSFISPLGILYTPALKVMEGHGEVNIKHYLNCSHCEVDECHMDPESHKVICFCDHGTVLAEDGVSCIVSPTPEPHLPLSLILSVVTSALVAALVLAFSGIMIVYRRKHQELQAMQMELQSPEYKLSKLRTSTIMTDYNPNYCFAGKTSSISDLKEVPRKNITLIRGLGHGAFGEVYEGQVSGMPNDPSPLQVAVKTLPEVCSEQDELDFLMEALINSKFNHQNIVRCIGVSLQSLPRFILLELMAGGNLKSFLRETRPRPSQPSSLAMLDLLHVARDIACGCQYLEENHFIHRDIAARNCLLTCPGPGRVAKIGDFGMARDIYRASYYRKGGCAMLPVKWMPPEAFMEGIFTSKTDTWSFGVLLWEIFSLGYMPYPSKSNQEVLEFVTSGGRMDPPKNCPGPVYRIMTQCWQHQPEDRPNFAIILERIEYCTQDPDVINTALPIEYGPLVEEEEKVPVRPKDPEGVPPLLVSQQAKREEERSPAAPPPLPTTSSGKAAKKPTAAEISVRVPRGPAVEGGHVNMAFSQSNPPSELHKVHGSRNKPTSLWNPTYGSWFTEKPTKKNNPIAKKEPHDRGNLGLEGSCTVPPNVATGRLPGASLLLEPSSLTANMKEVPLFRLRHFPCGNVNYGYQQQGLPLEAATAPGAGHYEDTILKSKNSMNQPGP

Assay [1] has as its target His-ALK^I1171N/D1203N (Homo sapiens, UniProt Q9UM73, D1203N/I1171N). In words: ALK I1171N/D1203N compound mutant kinase inhibitory activity assay (HTRF). The conditions noted are these: read-out: ALK^I1171N/D1203N Enzyme, IC50, ATP 1 µM, enzyme 0.3 nM, 1 hour at 23 °C.
The test system of assay [2] is Baf3 EML4-ALK V1^I1171N/D1203N cells. Conditions: read-out: BaF3 EML4-ALK^I1171N/D1203N IC50; 3 days incubation, Cell-Titer Glo.
Assay [3] concerns the target His-ALK^G1202R/L1196M (Homo sapiens, UniProt Q9UM73, G1202R/L1196M). In words: ALK G1202R/L1196M compound mutant kinase inhibitory activity assay (HTRF). The conditions noted are these: read-out: ALK^G1202R/L1196M Enzyme, IC50, ATP 4 µM, enzyme 0.5 nM, 1 hour at 23 °C.
Assay [4] has as its system Baf3 EML4-ALK V1^G1202R/L1196M cells. The conditions noted are these: read-out: BaF3 EML4-ALK^G1102R/L1196M, IC50; 3 days incubation, Cell-Titer Glo.

pIC50: −log10 of the molar value.

With `CCn1nc(C#CC2CCN(C(C)=O)CC2)c2c1-c1cnc(N)c(c1)O[C@H](C)c1cc(F)ccc1-c1nn(C)cc1C2`, the pIC50 in assay [1] is greater than 8.30; in assay [2], greater than 8.00; in assay [3], greater than 8.30; in assay [4] it was greater than 8.00.

As for “(19R)-3-ethyl-16-fluoro-10,19-dimethyl-5-((1-methyl imidazol-4-yl)ethyny 1)-20-oxa-3,4,10,11,23-pentaazapentacyclo[19.3.1.0^8,12.0^13,18.0^2,6]pentacosa-1(25),2(6),4,8(9),1 1,13(18),14,16,21(22),23-decaen-22-amine”, the pIC50 in assay [1] is greater than 8.30; in assay [2], greater than 8.00; in assay [3], greater than 8.30; in assay [4], greater than 8.00.

As to `CCn1nc(C#Cc2cnn(CCOC)c2)c2c1-c1cnc(N)c(c1)O[C@H](C)c1cc(F)ccc1-c1nn(C)cc1C2`, the pIC50 in assay [1] is greater than 8.30; in assay [2], greater than 8.00; in assay [3], greater than 8.30; in assay [4], greater than 8.00.

As to `C=C(C)c1nn(CC)c2c1Cc1cn(C)nc1-c1ccc(F)cc1[C@@H](C)Oc1cc-2cnc1N`, the pIC50 in assay [1] and in assay [3] was greater than 8.30 in each case.

Regarding `CCn1nc(C#CC(C)(C)N2CCOCC2)c2c1-c1cnc(N)c(c1)O[C@H](C)c1cc(F)ccc1-c1nn(C)cc1C2`, the values for the pIC50 in assay [2], in assay [3] and in assay [4] were greater than 8.00, greater than 8.30 and greater than 8.00, respectively.

As for `CCn1nc(C#CCn2ccnc2)c2c1-c1cnc(N)c(c1)O[C@H](C)c1cc(F)ccc1-c1nn(C)cc1C2`, the pIC50 in assay [1] is greater than 8.30; in assay [3], greater than 8.30; in assay [4], greater than 8.00.

For the compound `CCn1nc(C#CCCO)c2c1-c1cnc(N)c(c1)O[C@H](C)c1cc(F)ccc1-c1nn(C)cc1C2`, the figures for the pIC50 in assay [1], in assay [3] and in assay [4] were greater than 8.30, greater than 8.30 and greater than 8.00, respectively.

With `CCn1nc(C#Cc2ccn(C)n2)c2c1-c1cnc(N)c(c1)O[C@H](C)c1cc(F)ccc1-c1nn(C)cc1C2`, the pIC50 in assay [1] and in assay [3] was greater than 8.30 in each case.

For the compound `CCn1nc(C#CCCCO)c2c1-c1cnc(N)c(c1)O[C@H](C)c1cc(F)ccc1-c1nn(C)cc1C2`, the pIC50 is greater than 8.30 in assay [1], greater than 8.30 in assay [3] and greater than 8.00 in assay [4].

Regarding `CCn1nc(C#CC(C)(C)O)c2c1-c1cnc(N)c(c1)O[C@H](C)c1cc(F)ccc1-c1nn(C)cc1C2`, the pIC50 is greater than 8.00 in assay [2], greater than 8.30 in assay [3] and greater than 8.00 in assay [4].

Regarding `CCn1nc(N=S(C)(C)=O)c2c1-c1cnc(N)c(c1)O[C@H](C)c1cc(F)ccc1-c1nn(C)cc1C2`, the pIC50 in assay [1] was greater than 8.30; in assay [3], greater than 8.30; in assay [4] it was greater than 8.00.

As to `CCn1nc(C#CCO)c2c1-c1cnc(N)c(c1)O[C@H](C)c1cc(F)ccc1-c1nn(C)cc1C2`, the values for the pIC50 in assay [1], in assay [3] and in assay [4] were greater than 8.30, greater than 8.30 and greater than 8.00, respectively.

With `CCn1nc(C#Cc2cccnc2)c2c1-c1cnc(N)c(c1)O[C@H](C)c1cc(F)ccc1-c1nn(C)cc1C2`, the pIC50 in assay [1] and in assay [3] was greater than 8.30 in each case.

In the case of `CCn1nc(C#CC(C)(C)NC(=O)OC)c2c1-c1cnc(N)c(c1)O[C@H](C)c1cc(F)ccc1-c1nn(C)cc1C2`, the figures for the pIC50 in assay [3] and in assay [4] were greater than 8.30 and greater than 8.00, respectively.

Regarding `CCn1nc(C#Cc2cocn2)c2c1-c1cnc(N)c(c1)O[C@H](C)c1cc(F)ccc1-c1nn(C)cc1C2`, the pIC50 in assay [3] was greater than 8.30; in assay [4], greater than 8.00.

Turning to `CCn1nc(C#CCO)c2c1-c1cnc(N)c(c1)O[C@H](C)c1cc(F)ccc1-c1nn(C)nc1C2`, the pIC50 in assay [3] is greater than 8.30; in assay [4], greater than 8.00.

As to `CCn1nc(C#CC2(O)CCC2)c2c1-c1cnc(N)c(c1)O[C@H](C)c1cc(F)ccc1-c1nn(C)cc1C2`, the pIC50 in assay [3] was greater than 8.30; in assay [4] it was greater than 8.00.

`CCn1nc(C#Cc2cnccn2)c2c1-c1cnc(N)c(c1)O[C@H](C)c1cc(F)ccc1-c1nn(C)cc1C2`: the pIC50 in assay [3] was greater than 8.30; in assay [4] it was greater than 8.00.

Take `CCn1nc(C#Cc2cccnn2)c2c1-c1cnc(N)c(c1)O[C@H](C)c1cc(F)ccc1-c1nn(C)cc1C2`: the pIC50 in assay [3] is greater than 8.30; in assay [4], greater than 8.00.

As for `C#Cc1nn(CC2CC2)c2c1Cc1cn(C)nc1-c1ccc(F)cc1[C@@H](C)Oc1cc-2cnc1N`, the pIC50 in assay [3] was greater than 8.30; in assay [4], greater than 8.00.

In the case of `CCn1nc(C#Cc2cncc(N)n2)c2c1-c1cnc(N)c(c1)O[C@H](C)c1cc(F)ccc1-c1nn(C)cc1C2`, the pIC50 in assay [3] was greater than 8.30; in assay [4] it was greater than 8.00.

Turning to `CCn1nc(N=S2(=O)CCOCC2)c2c1-c1cnc(N)c(c1)O[C@H](C)c1cc(F)ccc1-c1nn(C)cc1C2`, the figures for the pIC50 in assay [3] and in assay [4] were greater than 8.30 and greater than 8.00, respectively.

Regarding `CCn1nc(C#CCC(C)(C)O)c2c1-c1cnc(N)c(c1)O[C@H](C)c1cc(F)ccc1-c1nn(C)cc1C2`, the pIC50 is greater than 8.30 in assay [1], greater than 8.30 in assay [3] and greater than 8.00 in assay [4].

Turning to `CCn1nc(C#CCN)c2c1-c1cnc(N)c(c1)O[C@H](C)c1cc(F)ccc1-c1nn(C)nc1C2`, the pIC50 in assay [3] was greater than 8.30; in assay [4], greater than 8.00.

Regarding `C#Cc1nn(CC)c2c1Cc1ccc(C)nc1-c1ccc(F)cc1[C@@H](C)Oc1cc-2cnc1N`, the pIC50 in assay [3] was greater than 8.30; in assay [4], greater than 8.00.

In the case of `CCn1nc(C#Cc2ccnc(N)c2)c2c1-c1cnc(N)c(c1)O[C@H](C)c1cc(F)ccc1-c1nn(C)cc1C2`, the pIC50 was greater than 8.30 in assay [3] and greater than 8.00 in assay [4].

With `CCn1nc(C#CC(=O)N2CCCCC2)c2c1-c1cnc(N)c(c1)O[C@H](C)c1cc(F)ccc1-c1nn(C)cc1C2`, the pIC50 in assay [1] and in assay [3] was greater than 8.30 in each case.

`CCn1nc(C#Cc2cscn2)c2c1-c1cnc(N)c(c1)O[C@H](C)c1cc(F)ccc1-c1nn(C)cc1C2`: the pIC50 in assay [3] was greater than 8.30; in assay [4], greater than 8.00.

With `CCn1nc(C#Cc2nccs2)c2c1-c1cnc(N)c(c1)O[C@H](C)c1cc(F)ccc1-c1nn(C)cc1C2`, the figures for the pIC50 in assay [3] and in assay [4] were greater than 8.30 and greater than 8.00, respectively.

Consider `C#Cc1nn(CC)c2c1Cc1cc(F)cnc1-c1ccc(F)cc1[C@@H](C)Oc1cc-2cnc1N`, for which the pIC50 in assay [3] is greater than 8.30; in assay [4] it was greater than 8.00.

In the case of “(19R)-3-ethyl-16-fluoro-10,19-dimethyl-5-((3-(oxetan-3-yl)imidazol-5-yl) ethynyl)-20-oxa-3,4,10,11,23-pentaazapentacyclo[19.3. 1.0^1,12.0^13,18.0^2,6]pentacosa-1(25),2(6),4, 8(9),11,13(18),14,16,21(22),23-decaen-22-amine”, the pIC50 was greater than 8.30 in assay [3] and greater than 8.00 in assay [4].

In the case of `CCn1nc(C#CC(C)(C)NC(=O)N(C)C)c2c1-c1cnc(N)c(c1)O[C@H](C)c1cc(F)ccc1-c1nn(C)cc1C2`, the pIC50 was greater than 8.30 in assay [3] and greater than 8.00 in assay [4].

Turning to `CCn1nc(C#CC2CCCNC2)c2c1-c1cnc(N)c(c1)O[C@H](C)c1cc(F)ccc1-c1nn(C)cc1C2` (stereo partly drawn), the pIC50 in assay [1] is greater than 8.30; in assay [3], greater than 8.30; in assay [4], greater than 8.00.

Take `CCn1nc(C#Cc2cnc(CO)cn2)c2c1-c1cnc(N)c(c1)O[C@H](C)c1cc(F)ccc1-c1nn(C)cc1C2`: the pIC50 in assay [3] is greater than 8.30; in assay [4], greater than 8.00.

Consider `CCn1nc(C#Cc2cnn(CCO)c2)c2c1-c1cnc(N)c(c1)O[C@H](C)c1cc(F)ccc1-c1nn(C)cc1C2`, for which the pIC50 was greater than 8.30 in assay [3] and greater than 8.00 in assay [4].

For `CCn1nc(C#CC2COCCN2C)c2c1-c1cnc(N)c(c1)O[C@H](C)c1cc(F)ccc1-c1nn(C)cc1C2` (stereo partly drawn), the pIC50 is greater than 8.00 in assay [2], greater than 8.30 in assay [3] and greater than 8.00 in assay [4].

As to `CCn1nc(C#Cc2cn[nH]c2)c2c1-c1cnc(N)c(c1)O[C@H](C)c1cc(F)ccc1-c1nn(C)cc1C2`, the values for the pIC50 in assay [3] and in assay [4] were greater than 8.30 and greater than 8.00, respectively.

With `CCn1nc(C#Cc2cccc(CO)n2)c2c1-c1cnc(N)c(c1)O[C@H](C)c1cc(F)ccc1-c1nn(C)cc1C2`, the pIC50 was greater than 8.30 in assay [1], greater than 8.30 in assay [3] and greater than 8.00 in assay [4].

Take `CCOC/C=C/c1nn(CC)c2c1Cc1cn(C)nc1-c1ccc(F)cc1[C@@H](C)Oc1cc-2cnc1N`: the pIC50 is greater than 8.30 in assay [3] and greater than 8.00 in assay [4].

On to `CCn1nc(C#CC(O)C(F)(F)F)c2c1-c1cnc(N)c(c1)O[C@H](C)c1cc(F)ccc1-c1nn(C)cc1C2` (stereo partly drawn), for which the pIC50 is greater than 8.30 in assay [1], greater than 8.30 in assay [3] and greater than 8.00 in assay [4].

With `CCn1nc(C#Cc2ncco2)c2c1-c1cnc(N)c(c1)O[C@H](C)c1cc(F)ccc1-c1nn(C)cc1C2`, the pIC50 in assay [1] and in assay [3] was greater than 8.30 throughout.

As to `CCn1nc(C#CC(=O)NC2CC2)c2c1-c1cnc(N)c(c1)O[C@H](C)c1cc(F)ccc1-c1nn(C)cc1C2`, the values for the pIC50 in assay [1], in assay [3] and in assay [4] were greater than 8.30, greater than 8.30 and greater than 8.00, respectively.

As for `[2H]C([2H])([2H])n1cc2c(n1)-c1ccc(F)cc1[C@@H](C)Oc1cc(cnc1N)-c1c(c(C#C)nn1CC)C2`, the pIC50 in assay [3] is greater than 8.30; in assay [4], greater than 8.00.

For `CCn1nc(C#Cc2ccc(CO)cn2)c2c1-c1cnc(N)c(c1)O[C@H](C)c1cc(F)ccc1-c1nn(C)cc1C2`, the pIC50 in assay [1] is greater than 8.30; in assay [3], greater than 8.30; in assay [4] it was greater than 8.00.

On to `CCn1nc(C#CCN)c2c1-c1cnc(N)c(c1)O[C@H](C)c1cc(F)ccc1-c1nn(C)cc1C2`, for which the values for the pIC50 in assay [1], in assay [3] and in assay [4] were greater than 8.30, greater than 8.30 and greater than 8.00, respectively.
